The text below walks through data of ChEMBL document CHEMBL1155874, “Carbonic anhydrase activators: Activation of the human cytosolic isozyme III and membrane-associated isoform IV with amino acids and amines” (Bioorg Med Chem Lett, 2008).

Protein sequences, listed by entry. Tags and fused reporters are not part of them. Lines headed by an entry give the natural chain unless they say otherwise; changes in a name come on top.
UniProt P07451: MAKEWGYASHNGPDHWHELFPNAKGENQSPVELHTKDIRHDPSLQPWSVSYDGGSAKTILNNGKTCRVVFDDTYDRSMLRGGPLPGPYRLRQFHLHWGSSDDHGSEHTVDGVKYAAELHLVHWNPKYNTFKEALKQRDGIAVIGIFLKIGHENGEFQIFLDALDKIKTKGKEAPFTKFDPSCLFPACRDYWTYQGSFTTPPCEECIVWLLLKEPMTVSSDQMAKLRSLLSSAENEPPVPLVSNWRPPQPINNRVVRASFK
UniProt P22748: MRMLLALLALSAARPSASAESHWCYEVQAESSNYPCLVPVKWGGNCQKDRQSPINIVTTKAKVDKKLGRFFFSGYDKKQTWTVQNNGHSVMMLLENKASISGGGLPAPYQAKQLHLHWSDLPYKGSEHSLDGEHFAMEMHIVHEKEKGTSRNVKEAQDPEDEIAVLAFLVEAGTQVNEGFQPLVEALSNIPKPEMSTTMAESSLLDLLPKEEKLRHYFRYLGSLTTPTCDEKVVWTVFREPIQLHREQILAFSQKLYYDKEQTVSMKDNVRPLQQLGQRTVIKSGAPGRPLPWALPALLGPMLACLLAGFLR

Test [1] addresses Carbonic anhydrase 3 (Homo sapiens) (UniProt P07451). Kind of test: Activation of human recombinant CA3 at 10 uM by stopped-flow CO2 hydration method.
Test [2] deals with Carbonic anhydrase 4 (Homo sapiens) (UniProt P22748). Kind of test: Activation of human recombinant truncated CA4 at 10 uM by stopped-flow CO2 hydration method.

Take `N[C@H](Cc1ccccc1)C(=O)O`: the Ka in test [1] is 15.4 µM; in test [2], 49.3 µM.
In the same order, the values of `N[C@@H](Cc1ccccc1)C(=O)O` are 34.7 µM and 36.3 µM.
